The numbers were not newly measured in patent US10688087B2, “Pharmaceutical compositions and therapeutic methods employing a combination of a manganese complex compound and a non-manganese complex form of the compound” (PLEDPHARMA AB, priority 2009, dated 2020), which cites them from elsewhere.

A value given as a limit tells only on which side of the number the result lay.

The conditions of the series: rats, 50 mg/kg body weight i.p. once daily for 1 or 4 days; cited from earlier work.

For the substance manganese (II) chloride, the “increase in manganese level, cerebellum” value was ≤ 427%; the “increase in manganese level, cerebral cortex” value is recorded as “up to 232%”; the “increase in manganese level, globus pallidus” value is ≤ 523%.
